Assay results: US20260035385A1, “BENZO NITROGEN-CONTAINING HETEROAROMATIC RING DERIVATIVE AND USE THEREOF IN MEDICINE” (Xizang Haisco Pharmaceutical Co., Ltd., priority 2021, published 2026)

Chains of the proteins cited; added tags and fusions are not shown. Residues count along the entry.
UniProt P00751, 260-764 limits assumed: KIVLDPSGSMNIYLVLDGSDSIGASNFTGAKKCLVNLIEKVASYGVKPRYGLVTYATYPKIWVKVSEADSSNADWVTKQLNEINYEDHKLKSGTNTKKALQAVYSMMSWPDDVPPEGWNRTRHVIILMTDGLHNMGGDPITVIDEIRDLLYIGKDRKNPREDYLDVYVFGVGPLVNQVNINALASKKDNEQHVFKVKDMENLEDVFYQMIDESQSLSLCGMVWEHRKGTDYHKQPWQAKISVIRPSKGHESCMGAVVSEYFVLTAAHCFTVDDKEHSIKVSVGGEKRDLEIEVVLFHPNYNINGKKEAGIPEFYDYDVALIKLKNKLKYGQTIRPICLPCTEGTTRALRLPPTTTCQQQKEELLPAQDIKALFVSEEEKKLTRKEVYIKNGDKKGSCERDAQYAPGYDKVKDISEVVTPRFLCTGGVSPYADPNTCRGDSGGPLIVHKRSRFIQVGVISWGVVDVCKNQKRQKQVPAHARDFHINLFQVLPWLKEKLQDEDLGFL

What was measured:
Caco-2 cells = assay: Caco2 permeability test; assay type: in vitro ADME; conditions: Caco2, compared with the trifluoroacetate of LNP023, in words
Procedure: The experiment used a monolayer of Caco-2 cells incubated in triplicate in a 96-well Transwell plate. […] Acetonitrile containing internal standard was then added to precipitate the protein. […] The integrity of the cell monolayer after 2 h of incubation was assessed by leakage of Lucifer Yellow.

FB = FB (Homo sapiens, UniProt P00751); assay: biochemical

Row | Structure (SMILES) | efflux ratio (Caco-2 cells) | IC50 (FB)
1 | [2H]C([2H])([2H])Oc1cc(C)c2[nH]ccc2c1CN1CC[C@H](C2CC2)C[C@H]1c1ccc(C(=O)O)cc1 [Trifluoroacetate of compound 7 (diastereomer 1), 4-((2S)-4-cyclopropyl-1-((5-(methoxy-d3)-7-methyl-1H-indol-4-yl)methyl)piperidin-2-yl)benzoic acid] | lower | –
2 | COc1cc(C)c2[nH]ccc2c1CN1CC[C@@H](C2CC2)C[C@H]1c1ccc(C(=O)O)cc1 [Trifluoroacetate of compound 5 (diastereomer 1), 4-((2S)-4-cyclopropyl-1-((5-methoxy-7-methyl-1H-indol-4-yl)methyl)piperidin-2-yl)benzoic acid] | lower | < 0.5 µM
